Experimental data published in BindingDB's records for doi:10.1016/0014-2999(93)90365-o (University of Toronto, 1993).

Chains of the proteins cited; added tags and fusions are not shown.
UniProt P14416, whole entry: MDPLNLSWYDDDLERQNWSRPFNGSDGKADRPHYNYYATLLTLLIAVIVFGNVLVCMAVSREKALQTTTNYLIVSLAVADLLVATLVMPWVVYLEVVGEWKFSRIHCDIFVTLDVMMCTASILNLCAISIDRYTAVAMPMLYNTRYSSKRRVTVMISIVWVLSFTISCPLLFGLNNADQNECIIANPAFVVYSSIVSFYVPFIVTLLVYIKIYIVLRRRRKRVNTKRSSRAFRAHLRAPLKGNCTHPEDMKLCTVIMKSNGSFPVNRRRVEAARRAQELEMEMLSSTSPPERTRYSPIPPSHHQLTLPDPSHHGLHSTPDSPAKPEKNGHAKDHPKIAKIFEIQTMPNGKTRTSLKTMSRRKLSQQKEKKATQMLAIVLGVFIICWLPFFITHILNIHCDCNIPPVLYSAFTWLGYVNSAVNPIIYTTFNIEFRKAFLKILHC

Target: D(2) dopamine receptor (Homo sapiens, UniProt P14416)

CCCN1CCc2cccc3c2[C@@H]1Cc1cccc(O)c1-3 [CAS_132-66-1]
Ki: 68 nM

CCCN1CCc2cccc3c2[C@H]1Cc1cccc(O)c1-3
Ki: 789 nM
